Experimental data published in patent publication US20250195475A1, “CDK2 INHIBITOR AND PREPARATION METHOD AND USE THEREOF” (INVENTISBIO CO., LTD., priority 2022, published 2025).

Sequences of proteins named here, by UniProt entry; tags and fusion partners are left off.
UniProt P06493, whole entry: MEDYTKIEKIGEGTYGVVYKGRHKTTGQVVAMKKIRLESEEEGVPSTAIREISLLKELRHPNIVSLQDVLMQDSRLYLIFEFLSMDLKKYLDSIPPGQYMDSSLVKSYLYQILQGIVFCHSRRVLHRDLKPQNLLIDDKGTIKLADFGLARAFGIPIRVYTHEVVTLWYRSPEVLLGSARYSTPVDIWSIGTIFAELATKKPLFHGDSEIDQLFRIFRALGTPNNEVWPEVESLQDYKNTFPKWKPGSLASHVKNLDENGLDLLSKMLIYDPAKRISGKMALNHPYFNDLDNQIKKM
UniProt P50750, whole entry: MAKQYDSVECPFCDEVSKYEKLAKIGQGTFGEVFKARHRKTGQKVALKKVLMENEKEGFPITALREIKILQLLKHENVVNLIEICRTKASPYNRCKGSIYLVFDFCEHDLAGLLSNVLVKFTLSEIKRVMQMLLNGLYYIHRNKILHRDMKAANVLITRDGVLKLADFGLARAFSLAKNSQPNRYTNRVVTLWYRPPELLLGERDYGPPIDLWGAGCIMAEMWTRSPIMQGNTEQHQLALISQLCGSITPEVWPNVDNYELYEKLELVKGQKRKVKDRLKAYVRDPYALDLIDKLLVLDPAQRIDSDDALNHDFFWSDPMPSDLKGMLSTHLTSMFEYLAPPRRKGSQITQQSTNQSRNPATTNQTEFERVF
UniProt O60563, whole entry partner: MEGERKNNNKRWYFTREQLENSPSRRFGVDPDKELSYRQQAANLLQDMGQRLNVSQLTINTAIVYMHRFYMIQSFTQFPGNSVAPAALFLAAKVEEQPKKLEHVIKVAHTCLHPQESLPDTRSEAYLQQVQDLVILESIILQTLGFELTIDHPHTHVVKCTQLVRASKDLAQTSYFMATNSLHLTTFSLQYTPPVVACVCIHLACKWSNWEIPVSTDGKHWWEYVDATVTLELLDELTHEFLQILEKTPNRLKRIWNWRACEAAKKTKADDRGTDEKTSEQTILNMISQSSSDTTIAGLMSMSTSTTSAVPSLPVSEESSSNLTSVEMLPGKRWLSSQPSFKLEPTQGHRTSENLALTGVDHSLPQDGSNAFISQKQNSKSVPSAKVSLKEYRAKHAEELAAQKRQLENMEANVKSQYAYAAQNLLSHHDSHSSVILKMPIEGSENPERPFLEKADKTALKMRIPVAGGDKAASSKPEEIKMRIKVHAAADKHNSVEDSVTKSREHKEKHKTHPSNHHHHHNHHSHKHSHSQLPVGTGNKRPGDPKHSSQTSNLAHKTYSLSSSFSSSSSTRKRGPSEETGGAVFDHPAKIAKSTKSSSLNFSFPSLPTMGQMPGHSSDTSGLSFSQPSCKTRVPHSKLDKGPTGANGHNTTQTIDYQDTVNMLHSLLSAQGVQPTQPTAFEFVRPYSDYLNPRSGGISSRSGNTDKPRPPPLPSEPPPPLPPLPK
UniProt P14635, whole entry partner: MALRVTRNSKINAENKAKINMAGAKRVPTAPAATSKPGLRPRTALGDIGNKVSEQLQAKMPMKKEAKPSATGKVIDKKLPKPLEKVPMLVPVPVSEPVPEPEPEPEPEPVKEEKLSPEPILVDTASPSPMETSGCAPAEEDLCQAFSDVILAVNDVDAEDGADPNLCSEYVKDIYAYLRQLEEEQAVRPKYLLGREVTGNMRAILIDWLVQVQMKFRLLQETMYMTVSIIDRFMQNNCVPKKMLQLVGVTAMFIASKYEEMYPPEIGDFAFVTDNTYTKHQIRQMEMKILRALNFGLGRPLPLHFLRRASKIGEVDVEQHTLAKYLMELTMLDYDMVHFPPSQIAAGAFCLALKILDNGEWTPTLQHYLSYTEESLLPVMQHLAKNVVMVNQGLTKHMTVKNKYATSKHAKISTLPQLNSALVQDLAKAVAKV

Assays:
[1] = molecular target: CDK2/CyclinE1 (Homo sapiens (Human), UniProt P24941); experiment: CDK2 kinase assay (TR-FRET)
[2] = molecular target: CDK1/CyclinB1 (Homo sapiens (Human), UniProt P06493); experiment: CDK1 kinase assay (TR-FRET); settings: read-out: CDK1 IC50, CDK1/CyclinB 7.5 nM, ATP 17 μM
Description: (§1) The purpose of these assays is to evaluate the inhibition of small molecule inhibitors by using TR-FRET assay.
(§2) Compound Preparation. Dissslove the compounds into DMSO solution to make 10 mM DMSO stock. Serially dilute the stock solution from highest concentration down to lowest in DMSO to make the compound stock plate (100× stock plates). To make 5× compound intermediate plate, add 38 μL of assay buffer (50 mM HEPES, pH 7.5, 0.05 mg/mL BSA, 10 mM MgCl2, 1 mM EGTA, 0.01% Tween-20, 2 mM DTT) into each well of the V-bottom plate; then transfer 2 μL of the stock compound solution of each concentration from the compound stock plate (100× stock), and mix well.
(§3) Enzyme reaction. Transfer 2 μL compound from 5× intermediate plate into assay plate, then add 4 μL/well 2.5× Enzyme mix to assay plate, incubation for 10 min at room temperature. For positive control wells, add 4 μL/well assay buffer instead of Enzyme mix. Then add 4 μL/well 2.5× Substrate mix to assay plate, and incubation at 25° C. for 30 min at room temperature. […]
(§4) Inhibition rate (IR) of the tested compounds was determined by the following formula: IR (%)=(average High control−compound well)/(average High control−average Low control)*100%. […]

[3] = molecular target: CDK9/CyclinT1 (Homo sapiens (Human), UniProt P50750); experiment: CDK9 kinase assay (TR-FRET); settings: read-out: CDK9 IC50, CDK9/CyclinT1 1.0 nM, ATP 3.5 μM
Description: as §1, §2, §3, §4

[4] = read-out: CDK2 IC50, CDK2/CyclinE1 0.5 nM, ATP 50 μM

Row | SMILES | IC50 [1, 4] | further results
1 | COC[C@H]1C[C@@H]1C(=O)Nc1cc(C2CC(OC(=O)NC(C)C)CO2)[nH]n1 (single isomer, unassigned) [54] | 0.0045 µM | –
2 | CC(C)NC(=O)O[C@@H]1CC[C@H](c2cc(NC(=O)[C@@H]3CCN(S(=O)(=O)C(F)F)C3)n[nH]2)C1 | 0.0027 µM | –
3 | CC(C)NC(=O)O[C@@H]1CC[C@H](c2cc(NC(=O)C3CC34CCOC4)n[nH]2)C1 (some centres unmarked) | 0.0209 µM | –
4 | CC(C)NC(=O)O[C@@H]1CO[C@H](c2cc(NC(=O)Cc3cc(F)cc(F)c3)n[nH]2)C1 (relative stereo) | 0.0008 µM | –
5 | COCc1cc(C(=O)Nc2cc([C@H]3CC[C@@H](OC(=O)NC4COC5(CCC5)C4)C3)[nH]n2)n(C)n1 (single isomer, unassigned) | – | IC50 [2]: 142 nM; IC50 [3]: 963 nM
6 | COCc1cc(C(=O)Nc2cc([C@H]3CC[C@@H](N4CC(C)(C)NC4=O)C3)[nH]n2)n(C)n1 (relative stereo) [89] | 0.0253 µM | –
7 | C#C[C@H]1C[C@@H]1C(=O)Nc1cc([C@H]2CC[C@@H](OC(=O)NC3(C)CCC3)C2)[nH]n1 | 0.0004 µM | –
8 | COCc1cc(C(=O)Nc2cc([C@H]3CC[C@@H](N4CC(C)(C)NC4=O)C3)[nH]n2)n(C)n1 (relative stereo) [Compound 88] | 0.024 µM | –
9 | CC(=O)[C@H]1C[C@@H]1C(=O)Nc1cc([C@H]2CC[C@@H](OC(=O)NC3(C)CCC3)C2)[nH]n1 | 0.0012 µM | –
10 | COC[C@H]1C[C@@H]1C(=O)Nc1cc(C2CC(OC(=O)NC(C)C)CO2)[nH]n1 (single isomer, unassigned) [55] | 0.0187 µM | –
11 | CC(C)NC(=O)O[C@@H]1CC[C@H](c2cc(NC(=O)C34CC(C(N)=O)(C3)C4)n[nH]2)C1 | 0.0032 µM | IC50 ([1]; read-out: CDK2 IC50, CDK2/CyclinE1 0.5 nM, ATP 50 μM, listed as 21): 0.0818 µM
12 | CC(C)NC(=O)O[C@@H]1CC[C@H](c2cc(NC(=O)[C@H]3C[C@@H]3CN3CCOCC3)n[nH]2)C1 | – | IC50 ([1]; read-out: CDK2 IC50, CDK2/CyclinE1 0.5 nM, ATP 50 μM, tested form: formate): 0.0065 µM

Read-outs that look alike come from different tables or passages of the source.
